What was measured:
human CD38 = human CD38 (Homo sapiens, UniProt P28907); test: human recombinant CD38 enzyme assay (hydrolysis of NAD+); conditions: read-out: hCD38 BioChem IC50; human recombinant CD38, 0.4 nM enzyme, 62.5 μM NAD+
mouse CD38 = mouse CD38 (Mus musculus, UniProt P56528); test: mouse recombinant CD38 enzyme assay (hydrolysis of NAD+); assay type: biochemical; conditions: read-out: mCD38 BioChem IC50
[1] = molecular target: endogenous CD38 in HL60 cells (Homo sapiens, UniProt P28907); test: cellular CD38 assay in HL60 cells (cellular NAD levels); conditions: read-out: hCD38 HL60 ATRA NAD Cell Diaphorase IC50, all-trans retinoic acid, 24 hours

Sequences of proteins named here, by UniProt entry; tags and fusion partners are left off.
UniProt P28907, whole entry: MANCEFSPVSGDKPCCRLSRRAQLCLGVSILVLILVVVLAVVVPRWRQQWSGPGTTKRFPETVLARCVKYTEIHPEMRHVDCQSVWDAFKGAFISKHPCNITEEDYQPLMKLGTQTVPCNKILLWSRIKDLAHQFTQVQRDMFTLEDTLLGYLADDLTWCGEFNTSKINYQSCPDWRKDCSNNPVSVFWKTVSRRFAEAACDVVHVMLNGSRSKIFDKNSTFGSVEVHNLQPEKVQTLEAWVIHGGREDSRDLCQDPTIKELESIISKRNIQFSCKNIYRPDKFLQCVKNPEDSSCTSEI
UniProt P56528, whole entry: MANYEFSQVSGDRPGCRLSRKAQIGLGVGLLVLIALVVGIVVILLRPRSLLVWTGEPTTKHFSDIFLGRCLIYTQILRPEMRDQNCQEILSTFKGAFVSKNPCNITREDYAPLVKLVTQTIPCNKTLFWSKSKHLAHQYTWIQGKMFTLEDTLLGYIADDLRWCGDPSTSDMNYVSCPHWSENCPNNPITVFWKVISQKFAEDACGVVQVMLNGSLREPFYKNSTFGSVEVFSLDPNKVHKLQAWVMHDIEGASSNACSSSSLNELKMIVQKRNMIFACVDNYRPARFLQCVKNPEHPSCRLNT

IC50 (human CD38): 10 nM
IC50 (mouse CD38): 8 nM
IC50 [1]: 280 nM
Compound: O=C(Nc1cccnc1)c1cccc(-n2ccnc2)n1
